Literature values as cited in paper PMC3783652.

Sequences of proteins named here, by UniProt entry; tags and fusion partners are left off. Residues count along the entry.
UniProt P48061, 22-89: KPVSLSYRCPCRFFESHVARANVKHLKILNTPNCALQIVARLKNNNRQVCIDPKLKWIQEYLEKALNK

Biological target: CXCL12 (Homo sapiens) (UniProt P48061)

Kd: 140 µM
Substance: CXCL12 (from UniProt P48061)
